{"source": "patent US10350264B2", "about": "“Compositions and methods for modulating NCOA4-mediated autophagic targeting of ferritin” (Dana-Farber Cancer Institute, Inc., priority 2014, dated 2019)", "molecular_target": "T1, NCOA4(aa 383-522)-GST (Homo sapiens, UniProt Q13772)", "T1 construct": "NCOA4(aa 383-522)-GST or GST alone was incubated with; made in house; host or cells: E. coli BL21 (DE3)", "T1 sequence (Q13772 383-522)": "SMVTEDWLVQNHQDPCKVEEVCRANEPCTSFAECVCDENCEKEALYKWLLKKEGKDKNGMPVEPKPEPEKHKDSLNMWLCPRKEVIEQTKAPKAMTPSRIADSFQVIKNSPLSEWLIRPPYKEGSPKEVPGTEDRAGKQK", "assay": "GST pull-down assay of WT and point mutant FTH1 using NCOA4(aa 383-522)-GST", "format": "binding", "details": "40 μg FTH1, InstantBlue stain; FIGS. 23A-D", "experimental": "Wild-type (WT) and point mutants of FTH1 were produced recombinantly in E. coli and purified by chromatographic techniques including size exclusion chromatography to confirm oligomeric ferritin cage assembly (elution at 440 kDa size on Superose 6 column). In a GST pull-down assay, NCOA4(aa 383-522)-GST or GST alone was incubated with 10 μl of a 50% (v/v) slurry of glutathione Sepharose 4B beads (GE Healthcare Lifesciences, 17-0756-01) for 30 minutes at 4° C. Beads were washed thoroughly with 150 mM NaCl, 20 mM Tris (pH 7.4), 2 mM dithiothreitol (DTT), 0.5% (w/v) Nonidet P-40, leaving 50-100 μg of GST-fusion protein bound to the beads. Beads were then mixed with 40 μg of recombinant human WT or point mutant FTH1 produced in Rosetta E. coli (EMD Millipore, 70953-3). The assay mix was incubated for 30 minutes at 4° C., and beads were washed three times with 1 ml wash buffer. Proteins were eluted with SDS sample buffer and analyzed by 4-20% gradient SDS-PAGE. InstantBlue Stain (Expedeon: catalog #ISB1L) was used to visualize GST-NCOA4 bands and FTH1 bands. […] The interaction would very likely also involve the loop structure (G78-K88) adjacent to the R23 site of FTH1.", "data": [{"substance": "FTH1 WT: recombinant human wild-type ferritin heavy chain (SEQ ID NO: 6), produced in E. coli", "values": [{"measurement": "binding of FTH1 (WT or point mutant) to NCOA4(383-522)-GST", "result": "strongly"}]}]}
